Test results reported in ChEMBL document CHEMBL1152381, “Investigation of aminopyridiopyrazinones as PDE5 inhibitors: Evaluation of modifications to the central ring system” (Bioorg Med Chem Lett, 2009).

Biological target: cGMP-specific 3',5'-cyclic phosphodiesterase (Homo sapiens, UniProt O76074)
Experiment: Inhibition of PDE5

IC50: 2.9 nM
Compound: CCCOCCn1c(=O)c(NCCN2CCOCC2)nc2ccc(-c3ccc(OC)nc3)nc21
